# Binding of CDR-mutated scFvs to a peptide of the spike HR2 region

Binding partner: SARS-CoV-2 spike HR2 peptide, sequence PDVDLGDISGINAS.

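The starting antibody came from a phage panning campaign against this peptide. Designed CDR sequences, proposed from the first random library and measured here. Group labels follow the data file (Ctrl: baseline library sampled from a position-specific scoring matrix, with some repeated check sequences; En: ensemble of fine-tuned language models; GP: Gaussian process model; HC: hill climbing; Gen: genetic algorithm; Gibbs: Gibbs sampling; a sequence that several methods proposed may carry one label only). Affinity was read by AlphaSeq, a pooled yeast mating assay with surface-displayed partners. Binding brings cells together so that they mate, and sequencing counts the barcode pairs among the diploids. A regression on co-assayed BCL2-family reference pairs converts the normalised counts of each replicate to an apparent Kd. The assay was run in six technical replicates.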

Ab-14 is the parent antibody, in scFv form: VH, then a (GGGGS)3 linker, then VL. The heavy chain is unchanged in all variants.
VH: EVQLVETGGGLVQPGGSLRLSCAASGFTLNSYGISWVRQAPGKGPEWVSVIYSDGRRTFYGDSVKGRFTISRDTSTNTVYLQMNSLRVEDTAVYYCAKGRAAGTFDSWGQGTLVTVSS
VL: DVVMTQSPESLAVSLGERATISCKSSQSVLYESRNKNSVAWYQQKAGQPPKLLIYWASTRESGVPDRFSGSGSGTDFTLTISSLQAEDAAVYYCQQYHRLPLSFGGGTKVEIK

Each variant's VL is given in full. Scale: log10 of Kd in nM, estimated from mating counts; low values are strong binders. A mean of the replicates is given; it leaves out those without a signal. Where no diploid with the target was found in any replicate, the entry reads "nd": below detection, most likely a poor binder, though not proof of it. Empty control strains, which show no peptide, gave a signal in 4% of pairings with all light chain designs; the median was 2.64 and 95% of these signals were weaker than 1.59. No background was subtracted. Also given: how often the same scFv was detected with the empty control strains. The range of this assay differs from that of the first round, and the authors advise against merging the two. The authors averaged sequences with at least three values out of six and counted those with two or fewer as poor binders. The parent sequence was in this pool as ten entries: three were never detected, three once, and four in most replicates, with averages from 0.34 to 2.37.

VL	group	log10 Kd (nM), mean	detected	control signals
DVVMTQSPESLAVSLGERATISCKLQQGALYESRNKNSVAWYQQKAGQPPKLLIYGASTRESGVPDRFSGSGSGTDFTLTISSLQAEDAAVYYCQQYHRLPLSFGGGTKVEIK	GP_HC	-0.24	6/6	0/18
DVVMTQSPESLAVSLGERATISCKHSQSWLYESRNKNSVAWYQQKAGQPPKLLIYGASTRESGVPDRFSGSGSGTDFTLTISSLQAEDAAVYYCQQYHRLPLSFGGGTKVEIK	GP_HC	0.02	6/6	2/18
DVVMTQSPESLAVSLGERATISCTMLHELIQDDPMYNNVAWYQQKAGQPPKLLIYDGSLKTAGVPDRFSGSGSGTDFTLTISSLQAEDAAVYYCQQYYRLPLSFGGGTKVEIK	En_Gibbs	1.54	5/6	1/18
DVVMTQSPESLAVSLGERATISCHSSQSVAYESRNKNSVAWYQQKAGQPPKLLIYNASTRESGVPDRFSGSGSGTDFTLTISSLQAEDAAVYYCQQYHRLPLSFGGGTKVEIK	GP_HC	0.81	6/6	2/18
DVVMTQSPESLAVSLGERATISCKVSQSDLYESRNKNNVAWYQQKAGQPPKLLIYDASTRESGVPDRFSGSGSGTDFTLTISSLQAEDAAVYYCQQYHRLPLSFGGGTKVEIK	GP_Gen	-0.53	6/6	1/18
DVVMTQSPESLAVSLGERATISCKLQQSQLYESRNKNSVAWYQQKAGQPPKLLIYNASTRESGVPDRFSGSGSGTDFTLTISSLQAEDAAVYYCQDYHRLPLSFGGGTKVEIK	GP_Gen	-0.14	6/6	0/18
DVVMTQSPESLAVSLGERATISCKQSQSTLYESVNKNSVAWYQQKAGQPPKLLIYDASTRESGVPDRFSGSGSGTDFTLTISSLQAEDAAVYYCQQYHRLPLSFGGGTKVEIK	GP_HC	0.10	6/6	0/18
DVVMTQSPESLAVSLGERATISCKLSQSVLYEERNKNSVAWYQQKAGQPPKLLIYNASTRCSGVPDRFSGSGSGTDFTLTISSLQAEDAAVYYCQQYHRLPLSFGGGTKVEIK	GP_Gen	-0.42	6/6	1/18
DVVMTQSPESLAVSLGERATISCKISGYLNKESKNKYNVAWYQQKAGQPPKLLIYEMVNRESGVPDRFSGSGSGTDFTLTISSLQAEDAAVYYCQQYDRLPLSFGGGTKVEIK	En_HC	0.44	6/6	0/18
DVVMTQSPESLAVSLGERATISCKSSWSELYESRNKNSVAWYQQKAGQPPKLLIYEASTRESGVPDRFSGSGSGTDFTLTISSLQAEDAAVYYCQQYHRLPLSFGGGTKVEIK	GP_Gen	0.18	6/6	1/18
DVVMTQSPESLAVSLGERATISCKSSQDVLYESRNRNSVAWYQQKAGQPPKLLIYWDSTRESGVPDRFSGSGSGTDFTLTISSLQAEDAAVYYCQQYHRLPLSFGGGTKVEIK	Ctrl	nd	0/6	0/18
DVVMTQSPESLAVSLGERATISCMISQLMNLGQFAINSVAWYQQKAGQPPKLLIYQASIRNAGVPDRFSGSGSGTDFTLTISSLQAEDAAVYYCQQYDRLPLAFGGGTKVEIK	En_Gen	2.10	4/6	0/18
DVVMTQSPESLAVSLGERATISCMVSQLMLWGLHYKNSIAWYQQKAGQPPKLLIYEAQTRVNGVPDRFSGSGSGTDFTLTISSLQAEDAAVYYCQQYDRLPLFFGGGTKVEIK	En_Gen	2.47	6/6	0/18
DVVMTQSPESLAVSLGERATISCHITSQEVGTIGAESNVAWYQQKAGQPPKLLIYETNTLLYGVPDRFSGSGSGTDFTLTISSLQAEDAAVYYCQQYSKLPLMFGGGTKVEIK	En_Gibbs	1.41	6/6	2/18
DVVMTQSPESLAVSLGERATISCKLWGRCMDEELINYNVAWYQQKAGQPPKLLIYNGRLAVQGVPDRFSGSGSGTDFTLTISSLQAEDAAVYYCQQYDRLPLSFGGGTKVEIK	En_Gibbs	1.93	2/6	0/18
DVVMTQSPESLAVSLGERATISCMMDNCQEGYYQQNNNVAWYQQKAGQPPKLLIYEMNARMEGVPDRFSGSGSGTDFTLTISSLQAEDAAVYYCQQYGRLPLMFGGGTKVEIK	En_Gibbs	1.40	6/6	0/18

Extract of 2 entries:

VL	group	log10 Kd (nM), mean	detected	control signals
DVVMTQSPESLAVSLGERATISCHITSQEVGTIGAESNVAWYQQKAGQPPKLLIYETNTLLYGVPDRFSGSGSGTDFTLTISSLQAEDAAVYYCQQYSKLPLMFGGGTKVEIK	En_Gibbs	1.41	6/6	2/18
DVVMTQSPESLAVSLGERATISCKHSQSWLYESRNKNSVAWYQQKAGQPPKLLIYGASTRESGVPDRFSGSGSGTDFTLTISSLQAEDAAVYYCQQYHRLPLSFGGGTKVEIK	GP_HC	0.02	6/6	2/18

Reference: Li et al. 2023, doi:10.1038/s41467-023-39022-2. File: FLAb, binding data.